Target: T1, human wild type STING (WT STING) (Homo sapiens, UniProt Q86WV6, H232R)
T1 construct: host or cells: 293T cells (ATCC CRL-3216), stably double transfected with pUNO1-hSTING-WT and pGL64.27-4×ISRE
Assay: 293T WT STING standard reporter assay
Type: cell-based
Details: 293T WT STING EC50, 293T wtSTING-FL cells, no digitonin, 7 hours; ISRE firefly luciferase
Description: Two complementary oligonucleotides of the sequence […] […] […] […] […] The oligonucleotides were mixed in equal molar amounts, hybridized, and cleaved by restriction endonucleases HindIII (cat. #. R0104S, NEB, Ipswich, USA) and BglII (cat. #R0144S, NEB, Ipswich, USA). Ultimately, they were ligated into plasmid pGL4.27 (cat. #E6651, Promega, Madison, USA) linearized with the same enzymes. As result the sequence with four ISRE sites was placed upstream of the minimum promoter of firefly luciferase reporter gene.
After 5 minutes incubation at room temperature (RT), 250 μL of the mixture was added dropwise to the cells in one well. Cells were incubated 36 hours at 37° C. with 5% CO2, and then detached with 0.05% Trypsin and 0.22 g/L EDTA (both cat. #L0941, Biowest, Riverside, USA).
Transfected cells were seeded onto poly-D-lysine coated six well plates at density 50,000 cells per 1 cm^2 in DMEM medium with high glucose containing 10% heat inactivated FBS, 30 μg/mL blasticidin (cat. #ant-b1-05, InvivoGen, San Diego, USA), 0.06 mg/ml Penicillin G and 0.1 mg/ml Streptomycin Sulfate (both cat. #. L0018, Biowest, Riverside, USA). The medium was replenished every 3-4 days until visible colonies of cells resistant to blasticidin were formed.
Blasticidin resistant cells stably expressing WT STING were further transfected with pGL64.27-4×ISRE plasmid following the same procedure as described above. […] Homogeneous culture of stably double transfected cells was prepared by limiting dilution of cells in 96 well plates and wells with cells were selected that originated from a single cell.
The medium was removed the next day and three-fold serial dilutions of compounds in 100 μl medium were added to the cells. The plates were incubated for 7 hours at 37° C. with 5% CO2. Next 50 μl of the medium was removed from wells, and 30 μl of ONE-Glo™ Luciferase Assay System reagent (cat. #E6120, Promega, Madison, USA) was added to each well. Luminescence was read on Synergy H1 (Biotek, Winooski, USA).

Protein sequences, listed by entry. Tags and fused reporters are not part of them.
UniProt Q86WV6, whole entry H232R: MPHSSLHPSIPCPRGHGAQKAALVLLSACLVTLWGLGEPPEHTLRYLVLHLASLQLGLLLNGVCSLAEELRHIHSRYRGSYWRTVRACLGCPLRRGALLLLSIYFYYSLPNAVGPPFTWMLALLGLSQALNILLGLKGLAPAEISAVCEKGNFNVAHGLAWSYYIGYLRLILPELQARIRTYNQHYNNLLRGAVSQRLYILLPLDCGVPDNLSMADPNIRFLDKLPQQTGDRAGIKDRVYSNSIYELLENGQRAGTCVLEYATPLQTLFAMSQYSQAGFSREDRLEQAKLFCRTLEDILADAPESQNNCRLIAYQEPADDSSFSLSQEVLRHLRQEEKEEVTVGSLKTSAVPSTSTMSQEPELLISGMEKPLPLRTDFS

CCCCCCCCCCCCCCCC(=O)OCSP1(=O)OC[C@H]2O[C@@H](n3cnc4c(N)ncnc43)[C@H](F)[C@@H]2OCP(=O)(O)OC[C@H]2O[C@@H](n3cnc4c(N)ncnc43)[C@H](F)[C@@H]2O1 (single isomer, unassigned) [Compound 38b]
EC50: 30 nM

CC(C)(C)C(=O)OCSP1(=O)OC[C@H]2O[C@@H](n3cnc4c(N)ncnc43)[C@H](F)[C@@H]2OCP(=O)(O)OC[C@H]2O[C@@H](n3cnc4c(N)ncnc43)[C@H](F)[C@@H]2O1 (single isomer, unassigned) [Compound 32a]
EC50: 700 nM

CC(C)(C)C(=O)OCSP1(=O)OC[C@H]2O[C@@H](n3cnc4c(N)ncnc43)[C@H](F)[C@@H]2OCP(=O)(O)OC[C@H]2O[C@@H](n3cnc4c(N)ncnc43)[C@H](F)[C@@H]2O1 (single isomer, unassigned) [Compound 32b]
EC50: 600 nM

CCCCCCCCCCCCCCCC(=O)OCSP1(=O)OC[C@H]2O[C@@H](n3cnc4c(N)ncnc43)[C@H](F)[C@@H]2OCP(=O)(O)OC[C@H]2O[C@@H](n3cnc4c(N)ncnc43)[C@H](F)[C@@H]2O1 (single isomer, unassigned) [Compound 38a]
EC50: 20 nM

CCCCCCCCCCCC(=O)OCSP1(=O)OC[C@H]2O[C@@H](n3cnc4c(N)ncnc43)[C@H](F)[C@@H]2OCP(=O)(O)OC[C@H]2O[C@@H](n3cnc4c(N)ncnc43)[C@H](F)[C@@H]2O1 (single isomer, unassigned) [Compound 31b]
EC50: 10 nM

CCCCCCCCCCCCCC(=O)OCSP1(=O)OC[C@H]2O[C@@H](n3cnc4c(N)ncnc43)[C@H](F)[C@@H]2OCP(=O)(O)OC[C@H]2O[C@@H](n3cnc4c(N)ncnc43)[C@H](F)[C@@H]2O1 (single isomer, unassigned) [Compound 37b]
EC50: 30 nM

CCCCCCCCCCCCCC(=O)OCSP1(=O)OC[C@H]2O[C@@H](n3cnc4c(N)ncnc43)[C@H](F)[C@@H]2OCP(=O)(O)OC[C@H]2O[C@@H](n3cnc4c(N)ncnc43)[C@H](F)[C@@H]2O1 (single isomer, unassigned) [Compound 37a]
EC50: 40 nM

CCCCCCCCCCCC(=O)OCSP1(=O)OC[C@H]2O[C@@H](n3cnc4c(N)ncnc43)[C@H](F)[C@@H]2OCP(=O)(O)OC[C@H]2O[C@@H](n3cnc4c(N)ncnc43)[C@H](F)[C@@H]2O1 (single isomer, unassigned) [Compound 31a]
EC50: 40 nM

CC(C)(C)C(=O)OCOc1ccc(CSP2(=O)OC[C@H]3O[C@@H](n4cnc5c(N)ncnc54)[C@H](F)[C@@H]3OCP(=O)(O)OC[C@H]3O[C@@H](n4cnc5c(N)ncnc54)[C@H](F)[C@@H]3O2)cc1 (single isomer, unassigned) [Compound 33a]
EC50: 300 nM

CC(C)(C)C(=O)OCOc1ccc(C(=O)OCSP2(=O)OC[C@H]3O[C@@H](n4cnc5c(N)ncnc54)[C@H](F)[C@@H]3OCP(=O)(O)OC[C@H]3O[C@@H](n4cnc5c(N)ncnc54)[C@H](F)[C@@H]3O2)cc1 (stereo partly drawn) [Compound 35b, {[(1R,6R,8R,9R,10R,16R,18R,19R)-8,18-bis(6-amino-9H-purin-9-yl)-9,19-difluoro-13-hydroxy-3,13-dioxo-2,4,7,11,14,17-hexaoxa-3λ^5,13λ^5-diphosphatricyclo[14.3.0.0^6,^10]nonadecan-3-yl]sulfanyl}methyl 4-{[(2,2-dimethylpropanoyl)oxy]methoxy}benzoate]
EC50: 1900 nM

CCCCCCCCCC(=O)OCSP1(=O)OC[C@H]2O[C@@H](n3cnc4c(N)ncnc43)[C@H](F)[C@@H]2OCP(=O)(O)OC[C@H]2O[C@@H](n3cnc4c(N)ncnc43)[C@H](F)[C@@H]2O1 (single isomer, unassigned) [Compound 36a]
EC50: 80 nM

CCCCCCCCCC(=O)OCSP1(=O)OC[C@H]2O[C@@H](n3cnc4c(N)ncnc43)[C@H](F)[C@@H]2OCP(=O)(O)OC[C@H]2O[C@@H](n3cnc4c(N)ncnc43)[C@H](F)[C@@H]2O1 (single isomer, unassigned) [Compound 36b]
EC50: 50 nM

CCCCCCCCCCCCOC(=O)OCSP1(=O)OC[C@H]2O[C@@H](n3cnc4c(N)ncnc43)[C@H](F)[C@@H]2OCP(=O)(O)OC[C@H]2O[C@@H](n3cnc4c(N)ncnc43)[C@H](F)[C@@H]2O1 (stereo partly drawn) [Compound 34b, (((2R,3R,3aR,7aR,9R,10R,10aR,15aR)-2,9-bis(6-amino-9H-purin-9-yl)-3,10-difluoro-13-hydroxy-5,13-dioxidodecahydro-2H-difuro[3,2-d:3′,2′-k][1,3,7,10]tetraoxa[2,8]diphosphacyclotridecin-5-yl)thio)methyl dodecyl carbonate]
EC50: 70 nM

From US20220143061A1, “3'3'-CYCLIC DINUCLEOTIDES AND PRODRUGS THEREOF” (INSTITUTE OF ORGANIC CHEMISTRY AND BIOCHEMISTRY ASCR, V.V.I., priority 2019, published 2022)
